{
  "source": "patent US20210252159A1",
  "about": "“CONJUGATES OF CARTILAGE-HOMING PEPTIDES” (priority 2018, published 2021)",
  "assay": "Rat CIA biodistribution study (QWBA)",
  "type": "in vivo",
  "conditions": "CIA rats; for signal in cartilage (whole body autoradiography): 400 nmol IV, 1 hr, 3 hrs, 24 hrs",
  "protocol": "50 uCi, 400 nmol of each compound was given intravenously (IV) through the tail vein and allowed to circulate 1 hour, 3 hours, or 24 hours. Rats were euthanized by CO2 asphyxiation, shaved, and frozen in dry ice chilled hexane. QWBA was performed and quantified as described.\nFrozen carcasses were allowed to off gas hexane overnight at −20° and then embedded in chilled 2% carboxymethylcellulose (Sigma Aldrich) and sectioned sagittally at a thickness of 40 μm on an H/I Bright 8250 Cryostat (Hacker Instruments). Radioactive control guides were drilled into each block to verify even cutting depth along the length of the section. The radioactive guide consisted of ^14C-Glycine (American Radiolabeled Chemicals, “ARC”) at 0.5 uCi/ml in 0.5% BSA (Sigma Aldrich) in PBS. Sections were collected onto 4-inch wide tape (Scotch 821, ULINE) at 2-4 depths to sample approximately 30 tissues with particular focus on the knees and spine. […]\nQuantification of the radioactivity detected in WBA samples was evaluated by measuring the pixel density/mm^2 (“SI”: Signal Intensity/Area−background) using AIDA Image Analyzer v 5.1 Whole Body Autoradiography Professional software (Raytest). […] For quantification, all visible knee or IVD (intervertebral disc) tissues for one rodent across all collected sections were measured and averaged together to generate one knee or IVD value per animal. […] To collect quantified values for other tissues, ROIs were drawn around blood in the heart ventricle, spinotrapezius muscle, the liver, or the kidney (including cortex and medulla) in all sections in which the tissue was observed and then averaged to yield one value per tissue per animal.\nData were presented as nmol of compound per gram of tissue. The commercial standard strips co-exposed with each WBA sample set were calibrated so that a known amount of radioactive counts per minute (CPM) per gram of tissue, determined by liquid scintillation counting (LSC), corresponded to the measured WBA SI at 11 standard strip concentration data points. […]",
  "data": [
    {"substance": "^14C-Cys-Dexamethasone [reference compound]", "values": [
      {"measurement": "accumulation in other tissues of the body", "setting": "400 nmol IV, 1, 3, 24 hrs, except liver and kidney", "result": "not detected at significant levels"},
      {"measurement": "signal in cartilage (whole body autoradiography)", "result": "minimal signal"},
      {"measurement": "signal in cartilage (whole body autoradiography)", "setting": "listed as 14C-Cys Dex", "result": "no visually detectable signal"}
    ]}
  ]
}
